Series [1] concerns the target β2 (guinea pig trachea) (Cavia porcellus, UniProt Q8K4Z4). Description: cell-based.
Series [2] in a line: in vivo. The settings on record: mouse, iv.

The chains behind the UniProt entries cited, without tags or fusion partners.
UniProt Q8K4Z4, whole entry: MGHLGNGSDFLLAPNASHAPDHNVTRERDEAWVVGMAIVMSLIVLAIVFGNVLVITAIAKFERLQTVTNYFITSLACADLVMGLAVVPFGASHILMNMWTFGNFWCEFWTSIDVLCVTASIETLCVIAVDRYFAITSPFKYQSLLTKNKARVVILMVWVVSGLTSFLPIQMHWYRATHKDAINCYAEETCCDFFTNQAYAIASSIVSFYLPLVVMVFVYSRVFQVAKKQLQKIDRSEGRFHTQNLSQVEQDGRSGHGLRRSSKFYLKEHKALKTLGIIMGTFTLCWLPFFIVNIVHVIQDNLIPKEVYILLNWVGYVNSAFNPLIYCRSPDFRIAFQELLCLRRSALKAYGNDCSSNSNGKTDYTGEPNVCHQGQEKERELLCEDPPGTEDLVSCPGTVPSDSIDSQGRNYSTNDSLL

Broadly, the IC50 is the midpoint of a concentration-inhibition curve. Consider `CC(C)NCC(O)COc1ccc(CC(N)=O)cc1` (centres unmarked) [Atenolol, atenolol, reference compound], for which the half-maximal inhibitory concentration (IC50) in series [1] is 5.7 µM.

As usually defined, the LD50 is the dose at which mortality reaches 50%. `CC(CCc1ccccc1)NCC(O)c1ccc(O)c(C(N)=O)c1` (centres unmarked) [Labetalol, labetalol, reference compound] came in with an LD50 at 168 h in series [2] of 55 mg/kg.

(Values after patent publication US4579861A, “Aryloxypropanolamine derivatives, pharmaceutical compositions and adrenegic thereof” (Pierrel S.p.A., priority 1983, dated 1986).)
